Measured values from PubChem BioAssay AID1987 (The Scripps Research Institute Molecular Screening Center, 2009).
This is a selection; strong and weak results do not stand in their true shares. Calls of active or inactive are those of the source.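 How the source made its calls: active means inhibition above the campaign's mean inhibition across all tested compounds plus 3 SD (cut at about 9.5% in these data); inactive means the rest.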

The chains behind the UniProt entries cited, without tags or fusion partners. Where a name states a change or a piece, a line headed by the entry shows the natural chain unless it says otherwise.
UniProt P53041: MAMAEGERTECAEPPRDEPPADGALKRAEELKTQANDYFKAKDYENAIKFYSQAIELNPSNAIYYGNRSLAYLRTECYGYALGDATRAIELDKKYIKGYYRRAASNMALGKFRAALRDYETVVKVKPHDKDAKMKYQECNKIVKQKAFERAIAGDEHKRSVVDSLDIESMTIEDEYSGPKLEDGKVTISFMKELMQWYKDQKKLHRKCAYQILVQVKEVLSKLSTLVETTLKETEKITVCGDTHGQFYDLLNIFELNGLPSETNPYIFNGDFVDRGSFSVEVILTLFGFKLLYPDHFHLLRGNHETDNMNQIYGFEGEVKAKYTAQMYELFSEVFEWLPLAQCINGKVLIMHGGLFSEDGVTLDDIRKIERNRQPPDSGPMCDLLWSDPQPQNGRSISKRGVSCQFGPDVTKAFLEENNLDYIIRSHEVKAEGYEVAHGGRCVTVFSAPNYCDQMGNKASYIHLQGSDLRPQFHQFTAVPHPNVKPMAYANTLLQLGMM

target: Serine/threonine-protein phosphatase 5 (Homo sapiens) (UniProt P53041); test: PP5 phosphatase inhibitors, primary screen, biochemical, fluorescence (AID 1987); details: purified PP5c, OMFP substrate fluorescence; at 6.7 µM; hits give high values;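 further: 0% = DMSO only and 100% = 100 µM cantharidin control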

Row | SMILES | inhibition
1 | CCC1=CC2Cc3nc4ccc(Cl)cc4c(N)c3C(C1)C2 (stereo not drawn) | inactive: -0.66%
2 | CCOP(=O)(Nc1ccc(C)cn1)OCC | inactive: 1.33%
3 | CN(CCCl)Cc1cc(Cl)c(NC2=NCCN2)c(Cl)c1 | inactive: 0.78%
4 | CC(C)/C=N\N=C(\N)N[N+](=O)[O-] | inactive: 1.7%
5 | CN(C(=O)Cc1ccc(Cl)c(Cl)c1)[C@@H]1CCCC[C@H]1N1CCCC1 | inactive: 1.26%
6 | CC1(CBr)Cn2c(nc3ccccc3c2=O)S1 (stereo not drawn) | inactive: 2.43%
7 | O=[As](O)(c1ccccc1Br)c1ccccc1Br | inactive: 2.2%
8 | COc1ccccc1CNC(=O)COC(=O)C(O)(c1ccccc1)c1ccccc1 | inactive: 2.07%
9 | CN(C)C1(CNC(=O)c2ccc(S(C)(=O)=O)cc2)CCCCC1 | inactive: 0.25%
10 | O=C(/C=C/c1ccccc1)OC1CN2CCC1CC2 (stereo not drawn) | inactive: 2.66%
11 | CC1CCC(C(C)C)C(OP(=O)(Nc2ccccn2)c2ccccc2)C1 (stereo not drawn) | inactive: 3.17%
12 | Cc1ccc(C(=O)OC2CN3CCC2CC3)cc1 (stereo not drawn) | inactive: 0.82%
13 | Cc1nn(-c2ccccc2)c2c1P(=O)(N1CCOCC1)N(C)C(c1ccccc1)=N2 (stereo not drawn) | inactive: 3.19%
14 | Nc1cccc([As](=O)(O)c2ccccc2)c1 | inactive: -2.55%
15 | O=[As](O)(c1cccs1)c1cccs1 | inactive: 0.76%
16 | Cc1ccc(OCC(=O)OC2CN3CCC2CC3)cc1 (stereo not drawn) | inactive: -1.67%
17 | O=P1(Nc2ccc(Br)cn2)COc2ccccc2OC1 | inactive: -1.15%
18 | NS(=O)(=O)c1cccc(NC(=O)COC(=O)C(O)(c2ccccc2)c2ccccc2)c1 | inactive: 1.19%
19 | O=P1(Nc2ncccn2)COc2ccccc2OC1 | inactive: 0.11%
20 | Nc1ccccc1[As](=O)(O)c1ccccc1 | inactive: -1.79%
21 | O=C(O)COc1ccc([As](=O)(O)O)cc1[N+](=O)[O-] | inactive: 2.82%
22 | O=P(Nc1nccs1)(Oc1ccccc1)Oc1ccccc1 | inactive: 4.54%

Row | SMILES | inhibition
23 | O=P(Nc1nccs1)(c1ccccc1)c1nc2ccccc2s1 (stereo not drawn) | inactive: 0.91%
24 | CCOP1(=S)c2c(C)nn(CCC#N)c2N=C(c2ccccc2F)N1C (stereo not drawn) | inactive: 0.4%
25 | CS(=O)(=O)c1cc([N+](=O)[O-])c2no[n+]([O-])c2c1 | inactive: 0.9%
26 | CCOP1(=S)c2c(C)nn(CCC#N)c2N=C(c2ccc(F)cc2)N1C (stereo not drawn) | inactive: 1.12%
27 | CN(C(=O)Cc1ccccc1)[C@@H]1CC[C@]2(CCCO2)C[C@H]1N1CCCC1 | inactive: 1.55%
28 | N#CCCN(C(=O)COC(=O)C(O)(c1ccccc1)c1ccccc1)c1ccc(F)cc1 | inactive: 1.89%
29 | CN(C(=O)Cc1ccc(Cl)c(Cl)c1)[C@H]1CC[C@@]2(CCCO2)C[C@@H]1N1CCCC1 | inactive: -1.71%
30 | O=[N+]([O-])c1ccc2c(c1)nnn2O | inactive: -1.15%
31 | CN(C)C(=O)c1cc([N+](=O)[O-])cc2c1-c1c(cc([N+](=O)[O-])cc1[N+](=O)[O-])C2=O | inactive: 4.57%
32 | NC(=O)Nc1ccc([As](=O)(O)O)cc1 | inactive: -1.48%
33 | Cc1cccc(OCC(=O)OC2CN3CCC2CC3)c1 (stereo not drawn) | inactive: 1.62%
34 | O=[As](O)(c1cccc(O)c1)c1cccc(O)c1 | inactive: -2.16%
35 | O=C(OC1CN2CCC1CC2)c1ccc(Cl)cc1 (stereo not drawn) | inactive: -0.85%
36 | CS(=O)(=O)c1ccc(Cl)c(NC(=O)COC(=O)C(O)(c2ccccc2)c2ccccc2)c1 | inactive: 2.07%
37 | O=[As](O)(O)c1cccnc1 | inactive: -0.32%
38 | COc1cc(C(=O)NCC2(N3CCOCC3)CCCCC2)cc(Cl)c1OC(C)C | inactive: 3.72%
39 | CCOP(=O)(Nc1cccc2ccccc12)OCC | inactive: 0.48%
40 | COc1cc(C2NCCC3(OCCO3)C2(C)C)cc(OC)c1OC (stereo not drawn) | inactive: 1.03%
41 | Nc1cccc2c([As](=O)(O)O)cccc12 | inactive: 1.15%
42 | Cc1ccc(NCCc2c([N+](=O)[O-])cc([N+](=O)[O-])cc2[N+](=O)[O-])cc1 | inactive: 0.15%
43 | CCCOP(=S)(Nc1nc(N)cc(=O)[nH]1)OCCC | inactive: 3.14%
